Laboratory results published in patent US5547845A (Duke University, priority 1994, dated 1996).

Amino acid sequences for entries named in this document (tags omitted).
UniProt P21728, whole entry: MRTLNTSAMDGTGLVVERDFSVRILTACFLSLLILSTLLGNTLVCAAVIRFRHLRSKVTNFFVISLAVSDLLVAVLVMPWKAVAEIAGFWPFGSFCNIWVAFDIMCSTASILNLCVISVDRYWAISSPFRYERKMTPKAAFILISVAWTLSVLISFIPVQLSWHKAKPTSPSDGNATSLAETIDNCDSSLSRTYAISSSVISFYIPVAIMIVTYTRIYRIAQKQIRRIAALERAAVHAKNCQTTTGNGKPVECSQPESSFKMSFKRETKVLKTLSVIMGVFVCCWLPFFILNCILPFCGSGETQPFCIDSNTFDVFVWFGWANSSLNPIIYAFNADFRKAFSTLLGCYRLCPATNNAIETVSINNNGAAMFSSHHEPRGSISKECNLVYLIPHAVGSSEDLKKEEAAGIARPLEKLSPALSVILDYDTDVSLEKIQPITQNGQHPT

Experiments:
[1] = biological target: human D1 dopamine receptor (clone HGL26) (Homo sapiens, UniProt P21728); test: Competition for [^125 I]SCH23982 binding to membranes of COS-7 cells expressing HGL26; parameters: a 2.3 kb EcoRI-XbaI restriction fragment containing the open reading frame was subcloned into the expression vector pCMV5; expressed in transfected cells; host or cells: African green monkey kidney COS-7 cells, transient, pCMV5
[2] = biological target: human D1 dopamine receptor (clone HGR213-1) (Homo sapiens, UniProt P21728); test: biochemical; assay type: binding; parameters: expressed in transfected cells; host or cells: monkey kidney COS-7 cells, transient, PBC12BI

SMILES | Kd [1] [nM] | Ki [2] [nM]
OCCN1CCN(CC/C=C2/c3ccccc3Sc3ccc(C(F)(F)F)cc32)CC1 [cis-flupenthixol] | 1.6 | 5.6
CNC[C@H](O)c1ccc(O)c(O)c1 [epinephrine] | > 55000 | 
NCCc1c[nH]c2ccc(O)cc12 [serotonin] | > 15000 | 
